# Yeast mating assay B: variants of the scFv Ab-14

From the AlphaSeq antibody data of Li et al. 2023 (doi:10.1038/s41467-023-39022-2), copy in the FLAb collection.

Target: peptide PDVDLGDISGINAS, taken from heptad repeat 2 (HR2) of SARS-CoV-2 spike.

Parent: Ab-14, a human scFv built as VH, three GGGGS repeats, VL. Only the CDRs of the heavy chain vary.
VH: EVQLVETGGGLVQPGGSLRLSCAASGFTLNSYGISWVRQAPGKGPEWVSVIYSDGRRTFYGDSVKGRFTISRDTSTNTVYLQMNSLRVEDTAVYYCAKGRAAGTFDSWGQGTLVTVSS
VL: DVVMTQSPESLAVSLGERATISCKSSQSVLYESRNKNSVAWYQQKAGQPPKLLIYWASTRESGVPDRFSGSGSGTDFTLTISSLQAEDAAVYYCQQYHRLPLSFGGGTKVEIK

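The parent was found by panning a naive human phage display library on the peptide. This is the validation round: designs drawn from the data on random variants, tested in the same kind of assay. Several design methods are mixed in this list. The assay is AlphaSeq: two haploid yeast populations carry antibody and antigen on their surface. The frequency of each diploid, read from paired DNA barcodes, reflects how well the two displayed proteins bind. Read counts were normalised to the haploid input and turned into Kd by a linear fit to BCL2-family pairs of known affinity, for each replicate. Mating was done six times.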

Each variant's VH is given in full.
This list holds designs with at most six substitutions.
The Kd shown is the geometric mean over detected replicates; a lower Kd is a better binder.
An entry "not detected" has no value in the source: the pair was not observed among the diploids in any replicate. This suggests poor binding but is not conclusive.
Three control strains display no target. For all heavy chain designs, 1% of the pairings with them gave a signal, with a median of 120 nM and one signal in twenty below 7.0 nM, so weak values seen in few replicates may be background.
In the paper, a design with two or fewer of six values counts as a poor binder.
Values of this round are not directly comparable with the first-round values of the same sequences.

| VH | Kd | replicates with signal |
|---|---|---|
| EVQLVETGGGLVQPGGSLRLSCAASGFTLNSYGISWVRQAPGKGPEWVSVIYSDGRRTFYGDAVKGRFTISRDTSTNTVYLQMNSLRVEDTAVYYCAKGRAATTFDSWGQGTLVTVSS | not detected | 0 of 6 |
| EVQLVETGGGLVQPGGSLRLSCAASGFTLNSYGISWVRQAPGKGPEWVSVIYADGRRTFYADSVKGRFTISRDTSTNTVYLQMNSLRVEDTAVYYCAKGRAAGTVDSWGQGTLVTVSS | 30 nM | 6 of 6 |
| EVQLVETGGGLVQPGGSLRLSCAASGFNLNSYGISWVRQAPGKGPEWVSVIYSDGRRTFYVDSVKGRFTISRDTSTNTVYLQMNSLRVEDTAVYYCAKGQAAGTFDAWGQGTLVTVSS | 43 nM | 6 of 6 |
| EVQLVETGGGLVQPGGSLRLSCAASGFSLNSYGISWVRQAPGKGPEWVSVIYSDGRRTFYADSVKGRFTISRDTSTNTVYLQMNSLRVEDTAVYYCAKGITAGTFDSWGQGTLVTVSS | 530 pM | 6 of 6 |
| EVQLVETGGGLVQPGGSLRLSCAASGFSLNNYGISWVRQAPGKGPEWVSVIYSDGRRTFYHDSVKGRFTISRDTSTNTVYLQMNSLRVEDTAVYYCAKGRTAGTFDSWGQGTLVTVSS | 3.3 nM | 6 of 6 |
| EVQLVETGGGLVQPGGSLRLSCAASGFTLNEYGISWVRQAPGKGPEWVSVIYSDGRRTFYQDSVKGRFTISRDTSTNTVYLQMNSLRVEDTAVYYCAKGTNAITFDSWGQGTLVTVSS | not detected | 0 of 6 |
| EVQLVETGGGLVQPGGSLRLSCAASGFNLNEYGISWVRQAPGKGPEWVSVIYSDGRRTFYGDSVKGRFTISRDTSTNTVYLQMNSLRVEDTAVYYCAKGRAAGAFDGWGQGTLVTVSS | not detected | 0 of 6 |
| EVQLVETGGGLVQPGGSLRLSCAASGFDLNSYGISWVRQAPGKGPEWVSVIYSDGRRTFYMDSVKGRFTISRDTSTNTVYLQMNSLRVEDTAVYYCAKGQAAGTFDSWGQGTLVTVSS | 5.6 nM | 6 of 6 |
| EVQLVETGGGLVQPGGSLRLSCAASGFDLNSYGISWVRQAPGKGPEWVSVIYSDGRRTFYSDSVKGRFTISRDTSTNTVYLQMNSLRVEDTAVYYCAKGTAAGTFDSWGQGTLVTVSS | 2.2 nM | 6 of 6 |
| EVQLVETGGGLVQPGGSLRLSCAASGKTLNEYGISWVRQAPGKGPEWVSVIYSDGRRTFYGDSVKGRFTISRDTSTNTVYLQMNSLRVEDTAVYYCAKGRAAVTFDQWGQGTLVTVSS | not detected | 0 of 6 |
| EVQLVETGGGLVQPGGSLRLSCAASGFTQNSYGISWVRQAPGKGPEWVSVIYADGRRTFYIDSVKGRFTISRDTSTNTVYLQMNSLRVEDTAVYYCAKGRAAGTFDSWGQGTLVTVSS | not detected | 0 of 6 |
| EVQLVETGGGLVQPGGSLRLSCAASGFNLNSYGISWVRQAPGKGPEWVSVIYSDGRRTFYGDSVKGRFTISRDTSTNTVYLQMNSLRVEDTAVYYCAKVREMGTFDSWGQGTLVTVSS | 340 nM | 1 of 6 |
| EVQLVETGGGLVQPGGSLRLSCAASGFNLNSYGISWVRQAPGKGPEWVSVIYSDGRRVFYIDSVKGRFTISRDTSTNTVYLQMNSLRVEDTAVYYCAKGRAAGTFDSWGQGTLVTVSS | 11 nM | 5 of 6 |
| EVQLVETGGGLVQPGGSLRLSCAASGFTLNSYGISWVRQAPGKGPEWVSVIYSDTRRVFYSDSVKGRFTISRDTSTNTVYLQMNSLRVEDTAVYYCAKGRAAGTFESWGQGTLVTVSS | not detected | 0 of 6 |
| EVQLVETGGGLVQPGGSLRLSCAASGFDLNSYGISWVRQAPGKGPEWVSVIYSDGRRTFYIDSVKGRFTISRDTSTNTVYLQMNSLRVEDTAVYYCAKGKAAGTFDAWGQGTLVTVSS | 730 pM | 6 of 6 |

A selection of 2 entries from above:

| VH | Kd | replicates with signal |
|---|---|---|
| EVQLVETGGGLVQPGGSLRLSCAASGFNLNSYGISWVRQAPGKGPEWVSVIYSDGRRTFYVDSVKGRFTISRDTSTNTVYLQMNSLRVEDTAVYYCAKGQAAGTFDAWGQGTLVTVSS | 43 nM | 6 of 6 |
| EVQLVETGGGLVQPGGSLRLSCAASGFSLNSYGISWVRQAPGKGPEWVSVIYSDGRRTFYADSVKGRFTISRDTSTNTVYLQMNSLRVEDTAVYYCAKGITAGTFDSWGQGTLVTVSS | 530 pM | 6 of 6 |